Earlier results as cited in patent publication US20040254629A1, “Methods and apparatus for treatment of aneurysmal tissue” (priority 2003, published 2004).

Details: in vivo; cited from earlier work

## NCCCC[C@H](N[C@@H](CCc1ccccc1)C(=O)O)C(=O)N1CCC[C@H]1C(=O)O [lisinopril]
  elimination / clearance route: cleared as the intact compound in the kidney
